According to PubChem BioAssay AID853 (Columbia University Molecular Screening Center, 2007):
The list shows a part of the results, in another mix than the full data. Some of these compounds have results that are not shown, active ones among them. The source made the active and inactive calls.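 How the source made its calls: active means inhibition of aggregate fluorescence above about 70%, also judged a hit by eye on the cell image (limit read from the data, passing the limit was not always enough); inconclusive means no rule stated for this call; inactive means not judged a hit on image review.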

Experiment: removal of polyQ htt aggregates in HeLa – imaging, HeLa Exon1htt(103Q)mCFP, confocal imaging, primary screen (AID 853);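 further: cells exposed to compound for three days before fixation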
Conditions: aggregate imaging, at 1.5 µM, active compounds read high, zero = plate's median compound well

SMILES	inhibition
CN(C)c1cccc(C(=O)NCC2(N(C)C)CCCCC2)c1	inactive: 9.8%
